The numbers were not newly measured in patent publication US20220152100A1, “METHODS FOR CONTROLLED ACTIVATION OR ELIMINATION OF THERAPEUTIC CELLS” (Bellicum Pharmaceuticals, Inc., priority 2014, published 2022), which cites them from elsewhere.

The chains behind the UniProt entries cited, without tags or fusion partners. Where a name states a change or a piece, a line headed by the entry shows the natural chain unless it says otherwise.
UniProt P62942: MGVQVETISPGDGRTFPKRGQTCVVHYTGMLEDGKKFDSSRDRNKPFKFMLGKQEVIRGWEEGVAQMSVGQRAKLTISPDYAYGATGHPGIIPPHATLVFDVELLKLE

Series [1] has as its target wt FRB (K2095 T2098 W2101) (Homo sapiens, UniProt P42345+P62942). The note with it: cited from earlier work.
A further series concerns the target FRB-PLF (Homo sapiens, UniProt P42345+P62942, K2095P/T2098L/W2101F). Conditions: cited from earlier work.

In general, EC50 refers to the concentration needed to bring the measured effect to its halfway point. R-Isopropoxyrapamycin: the EC50 in series [1] is 300 nM; on FRB-PLF it was 8.5 nM.
